Laboratory results reported in US20240350450A1, “COMPOSITION COMPRISING a-KE[…] (a-KG) AND 5-HYDROXYMETHYL-2-FURFURAL (5-HMF) TO IMPROVE HEMOGLOBIN-MEDIATED OXYGEN SUPPLY” (CYL GmbH, priority 2021, published 2024).

Chains of the proteins cited; added tags and fusions are not shown. Residues count along the entry.
UniProt P68871, 2-147 limits assumed: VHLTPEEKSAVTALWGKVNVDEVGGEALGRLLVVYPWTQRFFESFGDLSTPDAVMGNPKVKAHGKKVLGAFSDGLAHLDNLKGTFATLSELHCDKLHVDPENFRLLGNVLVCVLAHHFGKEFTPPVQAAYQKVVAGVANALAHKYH
UniProt P69905, 2-142 limits assumed: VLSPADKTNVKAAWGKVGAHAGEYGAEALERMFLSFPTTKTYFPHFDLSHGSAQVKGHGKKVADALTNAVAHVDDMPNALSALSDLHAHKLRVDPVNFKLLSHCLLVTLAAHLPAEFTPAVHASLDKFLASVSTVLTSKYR

Biological target: T1, hemoglobin (Hb) (Homo sapiens, UniProt P68871+P69905)
T1 construct: Venous blood was collected from 20 healthy subjects (ten women, ten men) aged 18 to 40 years; from tissue; host or cells: human venous whole blood (erythrocytes) of healthy volunteers
Assay: in vitro high-throughput determination of oxygen dissociation curves (ODC) in whole blood samples
Assay type: biochemical
Conditions: low, medium and high dosage, 37° C., 40 mmHg PCO2
Procedure: Venous blood was collected from 20 healthy subjects (ten women, ten men) aged 18 to 40 years. […] Immediately after blood collection, blood gas analysis was performed (ABL800 flex, radiometer) and samples were stored on ice and processed within eight hours.
The recommended maximum daily dose of 5-HMF of Sanopal® (Cyl, Austria) is 720 mg. Assuming its total distribution in the blood volume of a 70 kg person to be approximately 5000 ml (16), the low dose of 5-HMF was defined as 0.14 mg/ml ([…]).
To ensure stable conditions during the ODC measurement, the measurement setup was set up in an environmentally controlled, closed device (EC box). This box is temperature-controlled (37° C.) and contains the experimental setup consisting of a humidifier, a cover for the microplate reader, tubes and valves. A modified 96-well plate was used (a special coating process ensures a thin, yet adherent layer of red blood cells for optimal fluorescence measurement), which enabled a constant gas flow across all wells in a meandering gas flow channel. […]
The blood samples were placed in the individual wells using a special stamping technique so that a film consisting of a few cell layers could form. […] An oxygen ramp of around 20% by volume to 0% by volume was formed, so that a dissociation curve can be measured. […]

O=C(O)CCC(=O)C(=O)O [α-KG, α-ketoglutaric acid]
P50 / Hb oxygen binding affinity (Hb-O2 affinity): increased Hb-O2 affinity, but to a lesser extent
